Measurements reported in ChEMBL document CHEMBL1152804, “Relationship between brain tissue partitioning and microemulsion retention factors of CNS drugs” (J Med Chem, 2009).

Legend:
[1] = Dissociation constant, pKa by capillary electrophoresis; format: physicochemical
[2] = physchem; settings: buffer, pH 7.4

| SMILES | pKa [1] | logD [2] |
| --- | --- | --- |
| Cc1nc2n(c(=O)c1CCN1CCC(c3noc4cc(F)ccc34)CC1)CCCC2 [RISPERIDONE] | 8.63 |  |
| Cc1cc2c(s1)Nc1ccccc1N=C2N1CCN(C)CC1 [OLANZAPINE] |  | 1.9 |
